The numbers were not newly measured in patent US6498181B1, “Synergistic tumorcidal response induced by histamine” (Maxim Pharmaceuticals, priority 1999, dated 2002), which cites them from elsewhere.

The data set relates to breast cancer. The following applies: breast cancer patients, clinical trials; cited from earlier work.

Turning to “p185^HER-2 antibody: humanized mAb raised against the p185^HER-2 receptor (Genetech)”, the overall tumor response entry is given as “significant improvement in overall tumor response”.
